Here are results for seven molecules from ChEMBL document CHEMBL1149262, “Monoamine transporter binding, locomotor activity, and drug discrimination properties of 3-(4-substituted-phenyl)tropane-2-carboxylic acid methyl ester isomers” (J Med Chem, 2004).

Amino acid sequences for entries named in this document (tags omitted).
UniProt P31645, whole entry: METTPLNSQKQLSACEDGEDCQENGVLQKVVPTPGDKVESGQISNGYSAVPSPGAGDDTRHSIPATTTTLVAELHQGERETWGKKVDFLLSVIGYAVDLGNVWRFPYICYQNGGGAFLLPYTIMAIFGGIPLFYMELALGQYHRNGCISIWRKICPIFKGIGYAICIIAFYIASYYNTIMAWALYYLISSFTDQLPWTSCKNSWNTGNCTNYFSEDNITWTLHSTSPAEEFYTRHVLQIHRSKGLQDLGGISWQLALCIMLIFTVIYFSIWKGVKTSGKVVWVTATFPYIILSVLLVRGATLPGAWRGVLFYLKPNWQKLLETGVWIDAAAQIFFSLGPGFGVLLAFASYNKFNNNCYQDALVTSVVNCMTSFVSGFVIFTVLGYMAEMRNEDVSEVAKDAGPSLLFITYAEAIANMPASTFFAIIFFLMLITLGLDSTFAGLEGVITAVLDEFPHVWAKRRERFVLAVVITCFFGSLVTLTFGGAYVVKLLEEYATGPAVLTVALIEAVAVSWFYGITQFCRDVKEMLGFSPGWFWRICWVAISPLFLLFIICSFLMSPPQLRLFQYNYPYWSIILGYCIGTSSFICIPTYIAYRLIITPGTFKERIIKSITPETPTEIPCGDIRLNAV
UniProt P23975, whole entry: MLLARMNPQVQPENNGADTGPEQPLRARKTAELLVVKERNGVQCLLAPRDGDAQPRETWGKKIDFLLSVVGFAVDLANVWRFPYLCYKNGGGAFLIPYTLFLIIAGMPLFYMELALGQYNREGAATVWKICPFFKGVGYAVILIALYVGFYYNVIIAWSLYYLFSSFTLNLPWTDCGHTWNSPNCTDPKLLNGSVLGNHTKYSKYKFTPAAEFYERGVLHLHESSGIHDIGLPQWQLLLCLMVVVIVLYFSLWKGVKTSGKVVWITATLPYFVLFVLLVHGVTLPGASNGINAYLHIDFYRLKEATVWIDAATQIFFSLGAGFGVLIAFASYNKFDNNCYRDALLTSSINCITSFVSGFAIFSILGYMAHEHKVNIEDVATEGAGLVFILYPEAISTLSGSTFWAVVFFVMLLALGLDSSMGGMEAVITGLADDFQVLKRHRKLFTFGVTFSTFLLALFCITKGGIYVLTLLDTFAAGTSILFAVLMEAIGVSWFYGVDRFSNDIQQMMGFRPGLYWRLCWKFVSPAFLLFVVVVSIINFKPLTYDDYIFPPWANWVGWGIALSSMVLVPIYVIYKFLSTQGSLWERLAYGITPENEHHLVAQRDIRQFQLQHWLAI
UniProt Q01959, whole entry: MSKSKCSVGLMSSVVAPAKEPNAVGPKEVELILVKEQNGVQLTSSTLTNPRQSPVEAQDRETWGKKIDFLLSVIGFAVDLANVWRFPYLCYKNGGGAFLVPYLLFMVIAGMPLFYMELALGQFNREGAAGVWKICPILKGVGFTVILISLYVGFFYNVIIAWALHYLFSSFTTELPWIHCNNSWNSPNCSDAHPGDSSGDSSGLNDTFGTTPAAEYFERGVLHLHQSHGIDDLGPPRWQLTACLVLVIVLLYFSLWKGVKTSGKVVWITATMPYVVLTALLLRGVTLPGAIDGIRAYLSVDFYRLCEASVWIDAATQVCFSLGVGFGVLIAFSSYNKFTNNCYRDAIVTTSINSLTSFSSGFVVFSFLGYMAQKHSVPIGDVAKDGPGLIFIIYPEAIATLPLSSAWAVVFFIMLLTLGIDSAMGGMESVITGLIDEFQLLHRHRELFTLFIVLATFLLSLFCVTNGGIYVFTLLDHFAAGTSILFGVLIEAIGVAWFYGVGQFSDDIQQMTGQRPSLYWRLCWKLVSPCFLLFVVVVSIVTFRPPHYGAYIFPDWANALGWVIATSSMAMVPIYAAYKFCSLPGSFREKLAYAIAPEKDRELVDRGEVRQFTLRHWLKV

The target of assay [1] is Sodium-dependent serotonin transporter (Homo sapiens, UniProt P31645).
The target in assay [2] is Sodium-dependent noradrenaline transporter (Homo sapiens, UniProt P23975). The assay can be described thus: Displacement of [3H]nisoxetine from NET.
The subject of another assay is Mus musculus. The experiment in a line: Locomotor activity in ip dosed CD1 mouse after 1 hr relative to cocaine. The format is functional.
Assay [3] deals with Sodium-dependent dopamine transporter (Homo sapiens, UniProt Q01959). The experiment in a line: Displacement of [3H]WIN-35428 from DAT. In general terms: Displacement assays read how much labelled ligand stays bound in the presence of the test substance.

pIC50, pKi: −log10 of the molar value.

One may read the pIC50 as the negative decadic logarithm of the IC50, by convention in mol/L. A low value points to a high IC50. A word on the pKi: it is the negative decadic logarithm of the Ki, by convention in mol/L. On to `COC(=O)C1C2CC[C@H](C[C@@H]1c1ccc(Cl)cc1)N2C` (some centres not stated), for which, in assay [1], the pIC50 was 7.35 and the pKi was 8.40.
In assay [2], `COC(=O)[C@@H]1C2CCC(C[C@H]1c1ccc(Cl)cc1)N2C` (some centres not stated) had a pIC50 of 8.29 and a pKi of 8.51. In assay [1], the pIC50 is 7.28 and the pKi was 8.32. For the same molecule, in the assay with Mus musculus, the Ratio is reported as 2.6.
Take `COC(=O)[C@H]1[C@H]2CCC(C[C@H]1c1ccc(Cl)cc1)N2C`: the pIC50 in assay [2] is 6.25; in assay [1] it was 5.74; in assay [3], 7.93. Moreover, the results for the pKi in assay [2] and in assay [1] were 6.55 and 6.36, respectively. Also, in the assay with Mus musculus, the Ratio amounted to 0.2.
With `COC(=O)[C@H]1C2CCC(C[C@@H]1c1ccc(Cl)cc1)N2C` (some centres not stated), the pIC50 in assay [2] is 6.35; in assay [1], 5.84. Further, the pKi in assay [2] is 6.65; in assay [1] it was 6.45. Besides, the Ratio in the assay on Mus musculus came to 0.7.
Take `COC(=O)[C@@H]1C2CCC(C[C@H]1c1ccccc1)N2C` (some centres not stated): the Ratio in the assay with Mus musculus was 1.
With `COC(=O)[C@H]1C2CCC(C[C@@H]1c1ccccc1)N2C` (some centres not stated), in the assay on Mus musculus, the Ratio came out at 0.4.
Take `COC(=O)[C@@H]1C2CC[C@H](C[C@@H]1c1ccccc1)N2C`: in assay [1], the pKi is 6.75. Further, the Ratio in the assay with Mus musculus worked out at 2.7.
